In this test the test system is Hep 3B cells. The experiment in a line: MTT cell viability assay, Hep 3B cells (serum-free DMEM). The following applies: Homo sapiens, Hep3B, 72 h, read-out: Cell viability, lovastatin 20 μM, 72 hr. On the technique in general: Formazan colour is commonly taken as a measure of viable cells.

The structures appear in SMILES notation.

On to `CC[C@H](C)C(=O)O[C@H]1C[C@@H](C)C=C2C=C[C@H](C)[C@H](CC[C@@H]3C[C@@H](O)CC(=O)O3)[C@H]21` [Lovastatin, lovastatin], for which the viability at 20 µM turned out to be 31.5 ± 5.3%.

For orientation: viability means a per cent measure of how many cells are alive, often set against a control.

The values above are taken from patent US20020173538A1, “Method for sensitizing cancer cells to cancer therapies with a mevalonate-reducing compound” (priority 2000, published 2002).
